{"source": "patent US5869457A", "about": "“Modified proteins and their use for controlling viral infections” (Rijksuniversiteit Te Groningen, priority 1991, dated 1999)", "key": {"SIV": {"test_system": "SIV", "test": "inhibitory effect on SIV", "type": "cell-based", "parameters": "key: +: activity determined"}, "VSV": {"test_system": "VSV", "type": "cell-based"}, "Sendai": {"test_system": "Sendai", "test": "Sendai virus: fusion of viral membrane with erythrocyte ghosts, liposomes and cells (R15 dequenching)", "type": "biochemical"}, "Reo-virus": {"test_system": "Reo-virus", "test": "inhibitory effect on replication of RNA viruses: reovirus", "type": "cell-based"}, "CMV": {"test_system": "CMV", "test": "anti-CMV test, plaque formation and cell death in human embryonic lung (HEL) fibroblasts", "type": "cell-based, human cytomegalovirus (strain AD169 and Davis strain)"}, "FIV": {"test_system": "FIV", "test": "anti-FIV test, reverse transcriptase activity in cat thymocytes", "type": "cell-based"}, "HSV field": {"test_system": "HSV field", "test": "inhibitory effect on DNA viruses: HSV field", "type": "cell-based"}, "para-influenza": {"test_system": "para-influenza", "test": "inhibitory effect on replication of RNA viruses: para-influenza virus", "type": "cell-based"}, "Coxsackie": {"test_system": "Coxsackie", "test": "inhibitory effect on replication of RNA viruses: Coxsackie virus", "type": "cell-based"}, "VMW": {"test_system": "VMW", "test": "inhibitory effect on DNA viruses: VMW", "type": "cell-based"}, "Semliki Forest": {"test_system": "Semliki Forest", "test": "inhibitory effect on replication of RNA viruses: Semliki Forest virus", "type": "cell-based"}, "Sindbis": {"test_system": "Sindbis", "test": "inhibitory effect on replication of RNA viruses: Sindbis", "type": "cell-based, Sindbis virus"}, "HSV-2": {"test_system": "HSV-2", "type": "cell-based"}, "HSV-1": {"test_system": "HSV-1", "type": "cell-based"}, "plasma": {"test_system": "plasma", "test": "anticoagulant action determined as APTT", "type": "biochemical", "method": "The compounds were dissolved in PBS of pH 7.2 and 30 μl were added to 270 μl of plasma.\nAPTT=activated partial thromboplastin time (seconds) APTT was determined electromechanically using standard methods."}}}
{"substance": "Aco-HSA: reaction product of human serum albumin and aconitic anhydride (anhydride of cis- or trans-prop-1-ene-1,2,3-tri-carboxylic acid)", "values": [{"measurement": "Inhibitory effect on retroviruses, SIV", "setting": "SIV", "value": "+"}, {"measurement": "Inhibitory effect (IC50 μg/ml) on the replication of RNA viruses, VSV", "setting": "VSV", "value": "> 400", "unit": "µg/mL"}, {"measurement": "Inhibitory effect (IC50 μg/ml) on the replication of RNA viruses, Sendai", "setting": "Sendai", "value": "> 400", "unit": "µg/mL"}, {"measurement": "Inhibitory effect (IC50 μg/ml) on the replication of RNA viruses, Reo-virus", "setting": "Reo-virus", "value": "> 400", "unit": "µg/mL"}, {"measurement": "Inhibitory effect (IC50 μg/ml) on DNA viruses, CMV", "setting": "CMV", "value": "> 400", "unit": "µg/mL"}, {"measurement": "Inhibitory effect (IC50 μg/ml) on retroviruses, FIV", "setting": "FIV", "value": "< 0.01", "unit": "µg/mL"}, {"measurement": "Inhibitory effect (IC50 μg/ml) on DNA viruses, HSV field", "setting": "HSV field", "value": "> 400", "unit": "µg/mL"}, {"measurement": "Inhibitory effect (IC50 μg/ml) on the replication of RNA viruses, para-influenza", "setting": "para-influenza", "value": "> 400", "unit": "µg/mL"}, {"measurement": "Inhibitory effect (IC50 μg/ml) on the replication of RNA viruses, Coxsackie", "setting": "Coxsackie", "value": "> 400", "unit": "µg/mL"}, {"measurement": "Inhibitory effect (IC50 μg/ml) on DNA viruses, VMW", "setting": "VMW", "value": "> 400", "unit": "µg/mL"}, {"measurement": "Inhibitory effect (IC50 μg/ml) on the replication of RNA viruses, Semliki Forest", "setting": "Semliki Forest", "value": "> 400", "unit": "µg/mL"}, {"measurement": "Inhibitory effect (IC50 μg/ml) on the replication of RNA viruses, Sindbis", "setting": "Sindbis", "value": "> 400", "unit": "µg/mL"}, {"measurement": "Inhibitory effect (IC50 μg/ml) on DNA viruses, HSV-2", "setting": "HSV-2", "value": "> 400", "unit": "µg/mL"}, {"measurement": "Inhibitory effect (IC50 μg/ml) on DNA viruses, HSV-1", "setting": "HSV-1", "value": "> 400", "unit": "µg/mL"}, {"measurement": "Anticoagulant action, APTT", "setting": "plasma; 0.01 μg/ml", "value": 36.8, "unit": "s"}, {"measurement": "Anticoagulant action, APTT", "setting": "plasma; 0.1 μg/ml", "value": 37.8, "unit": "s"}, {"measurement": "Anticoagulant action, APTT", "setting": "plasma; 1 μg/ml", "value": 37.0, "unit": "s"}, {"measurement": "Anticoagulant action, APTT", "setting": "plasma; 3 μg/ml", "value": 35.9, "unit": "s"}, {"measurement": "Anticoagulant action, APTT", "setting": "plasma; 5 μg/ml", "value": 36.2, "unit": "s"}, {"measurement": "Anticoagulant action, APTT", "setting": "plasma; 10 μg/ml", "value": 33.0, "unit": "s"}, {"measurement": "Anticoagulant action, APTT", "setting": "plasma; 20 μg/ml", "value": 35.1, "unit": "s"}, {"measurement": "Anticoagulant action, APTT", "setting": "plasma; 30 μg/ml", "value": 37.8, "unit": "s"}, {"measurement": "Anticoagulant action, APTT", "setting": "plasma; 100 μg/ml", "value": 51.1, "unit": "s"}, {"measurement": "anticoagulant activity as side effect", "setting": "plasma; in words", "value": "slight anticoagulant activity at high concentrations"}]}
